Data set [1] can be described thus: Selectivity index, ratio of IC50 for cytotoxicity against human HDF cells to IC50 for anticancer activity against human SK-BR-3 cells. The format is toxicity, cell-based. The conditions noted are these: HDF cells versus SK-BR-3 cells, read-out: Ratio IC50.
In data set [2] the test system is SK-OV-3. The experiment in a line: Induction of apoptosis in human SK-OV-3 cells assessed as apoptotic index ratio using ABTS as substrate at 0.1 to 10 ug/ml incubated for 6.5 hrs by ELISA analysis. The format is functional. The settings on record: dose 0.1-10 µg/ml. (In general: ELISA stands for enzyme-linked immunosorbent assay.)
Data set [3] concerns the target T1, Heat shock protein HSP 90-alpha (Homo sapiens, UniProt P07900).
Data set [4] can be described thus: Selectivity index, ratio of IC50 for cytotoxicity against human HDF cells to IC50 for anticancer activity against human PC-3 cells. The format is toxicity, cell-based. The conditions noted are these: HDF cells versus PC-3 cells, read-out: Ratio IC50.
Data set [5] concerns the target T1, Heat shock protein HSP 90-alpha. The source holds these as a separate data set.
Data set [6] is described as follows: Selectivity index, ratio of IC50 for cytotoxicity against human HDF cells to IC50 for anticancer activity against human SK-OV-3 cells. The conditions noted are these: HDF cells versus SK-OV-3 cells, read-out: Ratio IC50. The format is cell-based.
Data set [7] concerns PC-3. The experiment in a line: Induction of apoptosis in human PC-3 cells assessed as apoptotic index ratio using ABTS as substrate at 0.1 to 10 ug/ml incubated for 6.5 hrs by ELISA analysis. The settings on record: dose 0.1-10 µg/ml. The format is functional.
The target in data set [8] is T1, Heat shock protein HSP 90-alpha. The experiment in a line: Binding affinity to recombinant human HSP90alpha assessed as dissociation constant by isothermal titration calorimetry assay. For orientation: Isothermal titration calorimetry measures the heat released or taken up as one component is titrated into another.
For data set [9] the target is unchanged. The source holds these as a separate data set.
In data set [10] the test system is SK-BR-3. The data set can be described thus: Induction of apoptosis in human SK-BR-3 cells assessed as apoptotic index ratio using ABTS as substrate at 0.1 to 10 ug/ml incubated for 6.5 hrs by ELISA analysis. The format is functional. The conditions noted are these: dose 0.1-10 µg/ml.

One may read the Kd as the equilibrium constant for the complex coming apart. Turning to `CO[C@H]1/C=C\C=C(/C)C(=O)NC2=CC(=O)C(NCc3cn(C/C=C/c4ccccc4)nn3)=C(C[C@@H](C)C[C@H](OC)[C@H](O)[C@@H](C)/C=C(\C)[C@@H]1OC(N)=O)C2=O`, the selectivity ratio in data set [1] was determined as 2.91; in [4], 3.05; in data set [6], 3.13. Besides, the values for the Ratio in [2], in data set [7] and in [10] were 6.03, 4.11 and 6.31, respectively. The molecule further yielded a deltaH in data set [3] of -8.27 kcal/mol. The logKa in data set [5] is 5.41. In addition, in [8], the dissociation constant Kd turned out to be 3.86 µM. The molecule also came in with a deltaG in [9] of -7.39 kcal/mol.

Regarding `CO[C@H]1/C=C\C=C(/C)C(=O)NC2=CC(=O)C(NCc3cn(CCCOS(=O)(=O)c4ccc(C)cc4)nn3)=C(C[C@@H](C)C[C@H](OC)[C@H](O)[C@@H](C)/C=C(\C)[C@@H]1OC(N)=O)C2=O`, the selectivity ratio in [1] was determined as 1; in data set [4], 0.96; in [6] it was 0.98. The Ratio in data set [2] is given as 4.88; in [7], 4.71; in data set [10] it was 4.92. In addition, the deltaH in data set [3] was -5.83 kcal/mol. This molecule came in with a logKa in data set [5] of 5.31. The equilibrium dissociation constant (Kd) in data set [8] was determined as 4.93 µM. Further, the deltaG in [9] was -7.24 kcal/mol.

For the molecule `CO[C@H]1/C=C\C=C(/C)C(=O)NC2=CC(=O)C(NCc3cn(Cc4ccc(Cl)cc4)nn3)=C(C[C@@H](C)C[C@H](OC)[C@H](O)[C@@H](C)/C=C(\C)[C@@H]1OC(N)=O)C2=O`, the results for the selectivity ratio in data set [1], in data set [4] and in [6] were 1.83, 1.91 and 1.91, respectively. Also, the Ratio in data set [2] came to 5.37; in data set [7], 4.62; in [10] it was 5.12. Also, the deltaH in [3] is -8.03 kcal/mol. This molecule also came in with a logKa in data set [5] of 5.26. The Kd in [8] came out at 5.53 µM. In addition, in data set [9], the deltaG was -7.17 kcal/mol.

The values are drawn from ChEMBL document CHEMBL5370558, “Modifications of geldanamycin via CuAAC altering affinity to chaperone protein Hsp90 and cytotoxicity” (Eur J Med Chem, 2023).
